Measured values reported in ChEMBL document CHEMBL2016464, “Identification of Inhibitors of NOD1-Induced Nuclear Factor-κB Activation” (ACS Med Chem Lett, 2011).

Experiments:
[1] = system: HEK-293T; assay type: cell-based; conditions: Homo sapiens
[2] = system: HEK-293T; assay type: cell-based; conditions: Homo sapiens; remark: listed apart in the source

Cc1ccc(S(=O)(=O)n2c(N)nc3ccccc32)cc1
Ratio IC50 [1]: > 36 | Ratio IC50 [2]: > 36
